Measured affinities in a library of Ab-91 heavy chain variants

The target is the same throughout: PDVDLGDISGINAS, from the HR2 region of SARS-CoV-2 spike.

Parent: Ab-91, a human scFv built as VL, three GGGGS repeats, VH. Only the CDRs of the heavy chain vary.
VL: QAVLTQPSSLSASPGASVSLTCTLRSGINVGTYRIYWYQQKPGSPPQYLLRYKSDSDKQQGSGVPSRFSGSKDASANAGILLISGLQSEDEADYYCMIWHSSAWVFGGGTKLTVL
VH: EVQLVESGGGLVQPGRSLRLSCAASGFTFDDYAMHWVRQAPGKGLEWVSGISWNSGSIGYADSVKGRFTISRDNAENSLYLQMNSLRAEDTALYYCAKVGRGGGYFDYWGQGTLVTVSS

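The starting antibody came from a phage panning campaign against this peptide. In library AAYL51, one, two or three CDR residues were substituted; doubles and triples were drawn at random. In AlphaSeq, yeast of one mating type display the scFv and yeast of the other type display the target. Mating (16 h, 30 °C) was followed by selection of diploids and sequencing of their barcodes. The ratio of observed to expected reads was calibrated, replicate by replicate, on BCL2-family standards whose Kd was known from biolayer interferometry. The assay was run in three technical replicates.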

Positions count from residue 1 of the parent VH; W53T puts T in place of W.
Scale: log10 of Kd in nM, estimated from mating counts; low values are strong binders.
The mean shown is taken over the replicates in which the pair was detected.
"n.d." means that the variant was in the library but no mating with the target was seen in that replicate; the authors take this as a sign of poor binding, and no number exists.
Empty control strains, which show no peptide, gave a signal in 21% of pairings with library AAYL51; the median was 4.54 and 95% of these signals were weaker than 3.26. No background was subtracted. Also given: how often the same scFv was detected with the empty control strains, with their mean in brackets.
Parent in this assay: reference entry 1.86, copy in this library 0.88.

| changes | log10 Kd, replicates | mean, log10 nM | signal with controls |
|---|---|---|---|
| W53T+S55V | 3.99 4.37 n.d. | 4.18 | 1/9 (4.40) |
| F27K+W53E+S63T | n.d. n.d. 3.54 | 3.54 | 0/9 |
| T28S+M34C+W53N | n.d. 5.22 n.d. | 5.22 | 1/9 (5.29) |
| G56V+I58W+Y60A | n.d. n.d. n.d. | n.d. | 0/9 |
| F27N+I51H+G104P | 3.73 n.d. 4.33 | 4.03 | 4/9 (4.61) |
| Y32H+Y60E+A61Q | 5.29 3.66 n.d. | 4.47 | 3/9 (4.34) |
| T28I+M34N+G104N | n.d. n.d. n.d. | n.d. | 1/9 (3.75) |
| T28Y+W53I+R101H | n.d. 1.96 n.d. | 1.96 | 1/9 (3.02) |
| G50C+S55P+I58W | 4.94 5.12 n.d. | 5.03 | 4/9 (4.88) |
| S57D | 2.60 2.76 2.47 | 2.61 | 6/9 (5.18) |
| Y32M+D62L+G104I | n.d. n.d. n.d. | n.d. | 1/9 (3.77) |
| T28K+N54P+R101D | n.d. n.d. n.d. | n.d. | 0/9 |
| F27K+S55R+D107L | n.d. 4.13 n.d. | 4.13 | 0/9 |
| G103L | n.d. n.d. n.d. | n.d. | 2/9 (4.55) |
| M34G+S57M+V99D | 3.80 5.23 n.d. | 4.52 | 5/9 (4.40) |
| S55C+I58T+G59H | n.d. n.d. n.d. | n.d. | 0/9 |
| Y60R+G100C+Y108F | n.d. n.d. 4.33 | 4.33 | 0/9 |
| I51Q+R101G+D107Y | n.d. n.d. n.d. | n.d. | 1/9 (3.73) |
| G59E+K65A+V99I | 2.10 1.98 1.62 | 1.90 | 1/9 (3.43) |
| F29D+K65T+Y108K | n.d. n.d. 5.47 | 5.47 | 5/9 (4.66) |
| D62V+R101Y+G104V | n.d. n.d. n.d. | n.d. | 0/9 |
| W53I+I58G+D62A | n.d. n.d. n.d. | n.d. | 0/9 |
| F29P+S52T+S55K | n.d. n.d. n.d. | n.d. | 0/9 |
| G56K+D62F+D107V | n.d. n.d. n.d. | n.d. | 0/9 |
| M34G+H35A+Y60L | n.d. n.d. 3.95 | 3.95 | 0/9 |
| G56M+G59C+R101D | 4.79 n.d. n.d. | 4.79 | 1/9 (3.26) |
| T28A+A61C+Y108H | 4.07 6.07 n.d. | 5.07 | 2/9 (4.43) |
| I51R+S52E+G56W | n.d. 4.26 n.d. | 4.26 | 1/9 (4.07) |
| S52Q+G56K+G102L | 4.00 n.d. 3.83 | 3.92 | 3/9 (4.41) |
| I51D+K65P+V99E | n.d. 6.11 n.d. | 6.11 | 2/9 (4.82) |
| D31L+I58W+Y108L | 1.69 1.76 1.39 | 1.61 | 5/9 (5.59) |
| G56N+V99H+G104R | n.d. n.d. n.d. | n.d. | 3/9 (5.03) |
| I51W+S57W+V64Y | 4.51 5.15 3.67 | 4.44 | 3/9 (4.66) |
| D30V+I51N+Y60I | n.d. n.d. n.d. | n.d. | 0/9 |
| T28S+A61S | 2.04 2.11 1.81 | 1.99 | 1/9 (4.19) |
| A61H+S63C+V64G | 4.03 n.d. n.d. | 4.03 | 2/9 (4.23) |
| W53R+D62H+Y105R | n.d. 5.93 n.d. | 5.93 | 2/9 (3.89) |
| A33C+G56Y+I58D | n.d. 4.50 3.97 | 4.24 | 1/9 (5.26) |
| F27R+S52M+S55K | n.d. n.d. n.d. | n.d. | 1/9 (5.04) |
| N54I+Y60M | n.d. n.d. n.d. | n.d. | 0/9 |
| F27W+G100L+Y105Q | 4.55 n.d. n.d. | 4.55 | 1/9 (2.79) |
| G103L+G104N+F106L | n.d. n.d. n.d. | n.d. | 0/9 |
| M34N+S57R+K65A | 4.25 n.d. n.d. | 4.25 | 0/9 |
| D30H+N54C | 3.09 2.95 2.65 | 2.90 | 2/9 (3.94) |
| D30Y+S55D+V64P | n.d. n.d. n.d. | n.d. | 1/9 (5.01) |
| S52R+G104S+Y105E | n.d. n.d. 2.62 | 2.62 | 0/9 |
| G50V+I51H+R101V | n.d. n.d. n.d. | n.d. | 1/9 (3.56) |
| W53S+G102N+Y105S | 2.00 2.21 1.99 | 2.07 | 3/9 (4.56) |
| S55P+D62A+F106M | 3.66 4.09 4.45 | 4.07 | 2/9 (4.92) |
| D30F+S52W+Y105C | n.d. n.d. 4.93 | 4.93 | 2/9 (3.86) |
| M34R+N54V+G104R | n.d. n.d. n.d. | n.d. | 3/9 (3.88) |

8 of these entries, quoted again:

changes	log10 Kd, replicates	mean, log10 nM	signal with controls
W53T+S55V	3.99 4.37 n.d.	4.18	1/9 (4.40)
T28K+N54P+R101D	n.d. n.d. n.d.	n.d.	0/9
S52R+G104S+Y105E	n.d. n.d. 2.62	2.62	0/9
G56M+G59C+R101D	4.79 n.d. n.d.	4.79	1/9 (3.26)
F27K+W53E+S63T	n.d. n.d. 3.54	3.54	0/9
G59E+K65A+V99I	2.10 1.98 1.62	1.90	1/9 (3.43)
A33C+G56Y+I58D	n.d. 4.50 3.97	4.24	1/9 (5.26)
M34R+N54V+G104R	n.d. n.d. n.d.	n.d.	3/9 (3.88)

Data: MIT Lincoln Laboratory AlphaSeq set, Engelhart et al. 2022, doi:10.1038/s41597-022-01779-4, as distributed in FLAb.